This is an account of results in ChEMBL document CHEMBL1133449 (J Med Chem, 2000).

This assay addresses T1, Acetylcholinesterase (Mus musculus) (UniProt P21836).
T1 sequence (whole entry): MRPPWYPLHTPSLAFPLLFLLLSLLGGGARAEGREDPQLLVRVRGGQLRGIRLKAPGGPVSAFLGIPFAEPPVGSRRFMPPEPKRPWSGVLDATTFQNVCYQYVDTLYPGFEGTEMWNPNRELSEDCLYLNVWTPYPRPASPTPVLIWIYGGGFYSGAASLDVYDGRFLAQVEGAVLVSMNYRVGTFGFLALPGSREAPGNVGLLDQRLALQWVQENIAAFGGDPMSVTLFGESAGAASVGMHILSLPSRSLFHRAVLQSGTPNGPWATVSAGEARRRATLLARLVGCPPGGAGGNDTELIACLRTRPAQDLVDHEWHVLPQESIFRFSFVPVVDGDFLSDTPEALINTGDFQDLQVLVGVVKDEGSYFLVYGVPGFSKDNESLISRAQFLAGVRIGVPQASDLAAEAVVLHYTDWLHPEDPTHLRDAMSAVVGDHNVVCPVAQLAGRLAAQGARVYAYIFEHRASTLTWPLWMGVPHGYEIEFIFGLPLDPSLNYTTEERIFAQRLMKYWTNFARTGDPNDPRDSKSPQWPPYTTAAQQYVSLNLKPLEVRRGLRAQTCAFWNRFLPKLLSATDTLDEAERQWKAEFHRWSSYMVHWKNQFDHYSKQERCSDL
In words: Ex Vivo evaluation of the Compound for the percentage of inhibition of brain acetylcholinesterase activity of drug-treated mice vs untreated controls (10 uM/Kg was used).

For the compound `CCC1=CC2Cc3nc4cccc(F)c4c(N)c3C(C1)C2` (configuration not stated), the inhibition is 3.6%.

As to `CCC1=CC2Cc3nc4cc(F)ccc4c(N)c3C(C1)C2` (configuration not stated), the inhibition came to 10.4%.

One may read the inhibition as how much of the control response was suppressed. Low readings indicate a response near the control, high ones a response far below the control.
